Columns and labels:
[1] = Half-life period (prodrug) was determined; format: ADME
Method in brief: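 Aqueous stability: 100 µM compound in CPG2 assay buffer (100 mM Tris-HCl pH 7.3, 260 µM ZnCl₂). Remaining parent measured by isocratic reverse-phase HPLC (10 mM ammonium acetate pH 5.0/methanol, UV 250 or 265-275 nm) at several times. Half-life from one-phase exponential decay fit. Labile compounds instead followed by absorbance change over 3 min; t½ = 0.69/rate constant.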

WiDr [2] = experiment: Cytotoxicity in WiDr cells expressing surface-tethered carboxypeptidase G2 (CPG2)
WiDr [3] = experiment: Cytotoxicity in WiDr cells expressing beta-galactosidase control; format: functional, cell-based, Homo sapiens
Method in brief: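 WiDr cells stably expressing surface-tethered CPG2 (stCPG2(Q)3) or β-galactosidase control; 2 × 10⁶ cells seeded, confluent after 48 h. Compound in DMSO stock diluted in medium, re-added at similar concentration after 1 h, further 20 h exposure. Cells reseeded in quadruplicate at ~2 × 10³/well, grown until controls confluent; SRB stain, 590 nm. IC50 from log dose-response sigmoid fit.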

Row | Structure (SMILES) | T1/2 [1] | IC50 (WiDr [2]) | IC50 (WiDr [3])
1 | Br.CNc1ccc(N(CCCl)CCCl)cc1 | 8.3 min | – | –
2 | Br.Nc1ccccc1N(CCBr)CCBr | 1 min | – | –
3 | Nc1ccc(N(CCBr)CCBr)cc1 | – | 7.7 µM | 9.4 µM
4 | CNc1ccc(N(CCCl)CCCl)cc1 | – | 8.2 µM | 9.2 µM
5 | Br.Nc1ccccc1N(CCI)CCI | 0.5 min | – | –
6 | CNc1ccc(N(CCBr)CCBr)cc1 | – | 7.4 µM | 7.2 µM
7 | Nc1ccccc1N(CCCl)CCCl | – | 2.4 µM | 3.5 µM
8 | CNc1ccc(N(CCI)CCI)cc1 | – | 8.4 µM | 7.7 µM
9 | Nc1ccccc1N(CCI)CCI | – | 8.6 µM | 10.2 µM
10 | Br.Nc1ccccc1N(CCCl)CCCl | 12.3 min | – | –
11 | Nc1ccccc1N(CCBr)CCBr | – | 18.6 µM | 23.4 µM
12 | Br.CNc1ccc(N(CCBr)CCBr)cc1 | 2.7 min | – | –
13 | Br.CNc1ccc(N(CCI)CCI)cc1 | 0.6 min | – | –
14 | Br.Nc1ccc(N(CCBr)CCBr)cc1 | 2.3 min | – | –
